# Test results taken from PubChem BioAssay AID624094 (National Center for Advancing Translational Sciences (NCATS), 2012).
# Chains of the proteins cited; added tags and fusions are not shown. Lines headed by an entry give the natural chain unless they say otherwise; changes in a name come on top.
# UniProt Q9HAZ1: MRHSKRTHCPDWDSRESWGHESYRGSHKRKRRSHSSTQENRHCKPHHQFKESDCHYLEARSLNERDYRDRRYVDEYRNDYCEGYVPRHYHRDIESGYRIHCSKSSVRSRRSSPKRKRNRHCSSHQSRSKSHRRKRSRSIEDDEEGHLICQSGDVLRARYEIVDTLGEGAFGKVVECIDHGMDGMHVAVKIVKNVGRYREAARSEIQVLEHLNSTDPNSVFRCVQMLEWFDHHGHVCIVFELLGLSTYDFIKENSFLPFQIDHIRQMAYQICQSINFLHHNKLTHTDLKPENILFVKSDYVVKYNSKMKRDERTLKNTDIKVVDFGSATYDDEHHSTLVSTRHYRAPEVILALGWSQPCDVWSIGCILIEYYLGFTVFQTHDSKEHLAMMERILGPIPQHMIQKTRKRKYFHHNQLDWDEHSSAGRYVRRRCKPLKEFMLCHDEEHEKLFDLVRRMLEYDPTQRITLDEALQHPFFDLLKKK
# The entries are a selection whose mix differs from that of the whole data set. Records with an inconclusive call do not appear. Active and inactive are the calls of the source. The call rests on the fitted dose curve; in most records, active means well fitted inhibition curve with a large enough effect; inconclusive means small, poorly fitted or top-dose-only effect; inactive means flat fitted curve, though single readings scatter.
# Biological target: Dual specificity protein kinase CLK4 (Homo sapiens) (UniProt Q9HAZ1)
# Experiment: Confirmation Assay for Inhibitors of Clk4 (Kinase-Glo Assay): KU probe
# Settings: recombinant Clk4, Kinase-Glo ATP luminescence
# Method: NIH Molecular Libraries Probe Production Centers Network [MLPCN] NIH Chemical Genomics Center [NCGC] MLPCN Grant: 1R03MH084827-01 Assay Submitter (PI): Tom Misteli NCGC Assay Overview: Clk4 (Invitrogen, cat# PV3839) was assayed using ATP and the RS repeat peptide (AnaSpec cat # 61722) as substrates. Following the Clk4 reaction, the remaining ATP levels were detected using Promega Kinase-Glo technology wherein the remaining ATP from the kinase reaction is detected using Ultra-Glo luciferase and D-luciferin which generates a bioluminescence signal from the ATP. The positive control for the assay was TG003 (Sigma-Aldrich, cat# 300801-52-9) which has been described as an inhibitor of Clk 4[1].
# NCGC Assay Protocol Summary: Two uL/well of substrate-buffer solution (100 uM RS peptide, 1 uM ATP, 25 mM Tris pH7.5, 10 mM MgCl2, 0.5 mM EGTA, 2.5 mM DTT, 0.01% Triton X-100 final concentration) was dispensed into 1536-well, assay plates (Greiner, solid white medium-binding plates) with Aurora Discovery BioRAPTR Flying Reagent Dispenser (FRD; Beckton-Dickenson). Using a Kalypsys pin tool equipped with a 1536-pin tool, 23 nL of compound solution was transferred to the assay plate. […] Luminescence was detected with the ViewLux plate reader (Perkin Elmer, Waltham, MA) after 5 min incubation using a 5 second exposure time and 2x binning.
structure (smiles),measurement,value
CCN1/C(=C/C(C)=O)Sc2ccc(OC)cc21,Potency,active: 0.0463 µM
